The source made the active and inactive calls. No cut-off for these calls is given here.
How the values were obtained:
[1] = target: T1, Diacylglycerol lipase-alpha (Mus musculus) (UniProt Q6WQJ1); assay: Inhibition of mouse DAGLalpha expressed in HEK293T cell membrane using [14C]SAG substrate at 10 nM by scintillation counting based radio-TLC assay; type: cell membranes; details: HEK-293T
T1 sequence (whole entry): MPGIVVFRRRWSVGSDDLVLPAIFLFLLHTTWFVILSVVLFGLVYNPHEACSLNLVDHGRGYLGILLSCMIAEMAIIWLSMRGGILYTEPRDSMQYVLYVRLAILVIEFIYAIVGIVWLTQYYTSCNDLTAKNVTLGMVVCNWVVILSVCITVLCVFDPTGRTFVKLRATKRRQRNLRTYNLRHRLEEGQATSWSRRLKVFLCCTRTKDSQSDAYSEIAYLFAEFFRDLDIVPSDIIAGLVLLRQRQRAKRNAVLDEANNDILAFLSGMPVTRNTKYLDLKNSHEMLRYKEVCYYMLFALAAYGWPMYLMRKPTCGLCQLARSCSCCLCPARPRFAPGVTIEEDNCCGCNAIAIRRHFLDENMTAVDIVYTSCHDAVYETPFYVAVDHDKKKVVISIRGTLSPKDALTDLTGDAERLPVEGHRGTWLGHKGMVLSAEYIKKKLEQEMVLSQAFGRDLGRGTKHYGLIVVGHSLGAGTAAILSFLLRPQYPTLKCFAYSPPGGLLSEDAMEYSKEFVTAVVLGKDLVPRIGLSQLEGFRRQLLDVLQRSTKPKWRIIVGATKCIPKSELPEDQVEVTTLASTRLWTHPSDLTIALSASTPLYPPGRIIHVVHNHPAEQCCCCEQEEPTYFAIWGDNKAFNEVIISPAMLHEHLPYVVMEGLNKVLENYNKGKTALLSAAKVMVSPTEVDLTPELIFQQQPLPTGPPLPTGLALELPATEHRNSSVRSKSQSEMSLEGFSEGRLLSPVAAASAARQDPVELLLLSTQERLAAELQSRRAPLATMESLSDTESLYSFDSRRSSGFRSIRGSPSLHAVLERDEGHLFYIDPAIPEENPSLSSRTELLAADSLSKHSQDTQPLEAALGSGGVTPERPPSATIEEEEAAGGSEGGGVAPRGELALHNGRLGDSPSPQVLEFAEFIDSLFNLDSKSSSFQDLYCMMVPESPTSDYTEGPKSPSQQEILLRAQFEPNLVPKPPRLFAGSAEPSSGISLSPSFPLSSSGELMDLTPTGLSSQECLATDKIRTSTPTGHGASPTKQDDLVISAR
Outline: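 mDAGLα radio-TLC using 8.8 μg membrane protein in 50 mM Tris pH 7.4 with 10 mM CaCl2. Inhibitor tested at 10 nM–10 μM, preincubated 15 min at 37 °C. [14C]SAG 20 μM final for 20 min at 37 °C. CHCl3/MeOH quench, silica TLC, phosphorimaging. Activity = labelled 2-AG+AA over total label. n=1–2.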

Sequences of proteins named here, by UniProt entry; tags and fusion partners are left off.
UniProt Q99685, whole entry: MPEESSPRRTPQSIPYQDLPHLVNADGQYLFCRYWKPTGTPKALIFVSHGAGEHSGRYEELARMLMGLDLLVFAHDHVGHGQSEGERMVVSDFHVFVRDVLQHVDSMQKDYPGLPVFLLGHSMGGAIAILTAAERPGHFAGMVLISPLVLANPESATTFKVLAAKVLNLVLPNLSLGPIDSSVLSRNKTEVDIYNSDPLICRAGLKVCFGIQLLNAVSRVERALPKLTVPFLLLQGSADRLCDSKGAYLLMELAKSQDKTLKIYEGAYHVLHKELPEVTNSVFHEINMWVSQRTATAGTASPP
UniProt P97612, whole entry: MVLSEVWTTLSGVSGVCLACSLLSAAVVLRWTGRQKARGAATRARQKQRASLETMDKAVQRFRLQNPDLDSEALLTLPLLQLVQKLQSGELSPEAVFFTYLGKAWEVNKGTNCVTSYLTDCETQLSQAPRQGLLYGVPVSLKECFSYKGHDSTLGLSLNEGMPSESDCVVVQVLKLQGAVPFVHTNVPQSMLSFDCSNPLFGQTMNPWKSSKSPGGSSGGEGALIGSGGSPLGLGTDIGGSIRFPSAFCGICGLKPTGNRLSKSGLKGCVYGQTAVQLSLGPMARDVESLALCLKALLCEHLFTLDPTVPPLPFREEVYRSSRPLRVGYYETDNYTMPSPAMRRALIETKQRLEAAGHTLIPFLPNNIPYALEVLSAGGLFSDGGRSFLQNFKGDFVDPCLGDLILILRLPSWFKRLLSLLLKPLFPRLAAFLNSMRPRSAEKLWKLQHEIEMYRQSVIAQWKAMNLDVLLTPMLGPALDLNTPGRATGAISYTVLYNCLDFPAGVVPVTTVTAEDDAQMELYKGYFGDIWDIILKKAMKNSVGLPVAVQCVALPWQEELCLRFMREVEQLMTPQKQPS

[2] = target: T2, Diacylglycerol lipase-alpha (Homo sapiens) (UniProt Q9Y4D2); assay: Inhibition of human DAGLalpha expressed in HEK293T cell membrane using [14C]SAG substrate at 10 uM in detergent free solution by scintillation counting based radio-TLC assay; details: HEK-293T
T2 sequence (whole entry): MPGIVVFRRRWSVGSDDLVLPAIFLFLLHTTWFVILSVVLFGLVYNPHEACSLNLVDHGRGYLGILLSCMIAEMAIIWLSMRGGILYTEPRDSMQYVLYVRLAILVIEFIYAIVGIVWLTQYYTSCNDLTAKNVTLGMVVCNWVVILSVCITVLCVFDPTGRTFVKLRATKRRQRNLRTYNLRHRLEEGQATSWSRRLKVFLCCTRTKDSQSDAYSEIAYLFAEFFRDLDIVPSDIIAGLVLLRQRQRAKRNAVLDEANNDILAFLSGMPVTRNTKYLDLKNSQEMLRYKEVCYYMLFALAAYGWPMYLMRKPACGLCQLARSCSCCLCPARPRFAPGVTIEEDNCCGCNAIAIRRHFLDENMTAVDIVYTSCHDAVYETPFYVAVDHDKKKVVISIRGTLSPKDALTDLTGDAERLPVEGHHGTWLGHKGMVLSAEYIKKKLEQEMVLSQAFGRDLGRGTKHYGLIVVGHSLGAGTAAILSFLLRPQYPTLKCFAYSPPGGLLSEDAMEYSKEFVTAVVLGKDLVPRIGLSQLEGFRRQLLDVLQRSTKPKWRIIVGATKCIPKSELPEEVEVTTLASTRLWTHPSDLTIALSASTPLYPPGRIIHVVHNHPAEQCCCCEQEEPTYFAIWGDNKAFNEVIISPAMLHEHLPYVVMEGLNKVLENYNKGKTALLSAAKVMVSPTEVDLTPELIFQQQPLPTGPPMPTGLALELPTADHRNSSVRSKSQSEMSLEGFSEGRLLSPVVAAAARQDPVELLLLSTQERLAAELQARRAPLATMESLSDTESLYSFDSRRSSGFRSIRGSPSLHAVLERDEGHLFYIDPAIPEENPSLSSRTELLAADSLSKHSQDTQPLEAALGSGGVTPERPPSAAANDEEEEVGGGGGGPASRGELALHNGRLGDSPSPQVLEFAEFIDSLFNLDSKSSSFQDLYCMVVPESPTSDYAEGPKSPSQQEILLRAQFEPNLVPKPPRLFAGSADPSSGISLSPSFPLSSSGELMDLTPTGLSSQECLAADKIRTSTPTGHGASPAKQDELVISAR
Outline: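 Sonicated HEK293T protein (100 μg) in 50 mM Tris pH 7.4 with 10 mM CaCl2. Inhibitor in DMSO (10% DMSO standard) preincubated 15 min at 37 °C. [14C]SAG was added to 20 μM final for 20 min at 37 °C, with Triton X-100 where the line states it. Quenched with 2:1 CHCl3/MeOH. Silica TLC in CHCl3/MeOH/NH4OH 86:14:0.75, then 12 h phosphorimaging. Activity = (2-AG+AA)/(2-AG+AA+SAG). Background-subtracted; n=1–2.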

[3] = target: Monoglyceride lipase (Homo sapiens) (UniProt Q99685); assay: Inhibition of human N-terminal histidine tagged full length MAGL expressed in Escherichia coli at 10 uM by coumarin ester substrate fluorescence assay
Outline: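 Purified hMAGL fluorescence assay with a 7-hydroxy-6-methoxy coumarin ester reporter substrate; mean of triplicate experiments.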

Sus scrofa = species on record: Sus scrofa; assay: Inhibition of porcine pancreatic lipase type 2 at 10 uM by FRET assay
Outline: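 Porcine pancreatic lipase type II (1.0 μg, suspended in 1:9 DMSO/water) with inhibitor 15 min, then pyrene–dinitrophenyl ether-lipid FRET reporter at 25 μM at 37 °C.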

[4] = target: T2, Diacylglycerol lipase-alpha (Homo sapiens); assay: Inhibition of human DAGLalpha expressed in HEK293T cell membrane using [14C]SAG substrate at 10 uM using JZL184 pretreated protein in detergent free solution by […]; type: cell-based; details: HEK-293T
[5] = target: Fatty-acid amide hydrolase 1 (Rattus norvegicus) (UniProt P97612); assay: Inhibition of rat histidine tagged FAAH expressed in Escherichia coli at 10 uM by coumarin ester substrate fluorescence assay

Structure (SMILES) | inhibition [1] | inhibition [2] | inhibition [3] | inhibition (Sus scrofa) | inhibition [4] | inhibition [5]
CCCCCCCCCCCCCCCCS(=O)(=O)F | inactive | inactive | 82% |  |  | 
O=S(=O)(F)Cc1ccccc1 [PHENYLMETHYLSULFONYLFLUORIDE] |  | 19% | 5% | 17% | 8% | 100%

From ChEMBL document CHEMBL2169869, “Assay and inhibition of diacylglycerol lipase activity” (Bioorg Med Chem Lett, 2012)
